Tests used:
[1] = system: seizure induced by the nerve agent diisopropylfluorophosphate (DFP); experiment: DFP toxicity animal model, anti-seizure activity
[2] = system: time-dependent memory deficit model; experiment: Novel Object Recognition test, time-dependent memory deficit model; conditions: for relative cognitive score (d2): i.p. 15 min before T1, 24 h inter-trial interval
[3] = target: human 5HT3 receptor (Homo sapiens, UniProt P46098); experiment: 5HT3 binding on recombinant CHO cells with [3H]BRL 43694; conditions: at 10 1M
[4] = target: muscle-type nAChR (Homo sapiens, UniProt P02708+P07510+Q07001); experiment: Muscle-type nAChR binding in human TE671 cells with [125I]α-BTX; conditions: at 10 μM

Chains of the proteins cited; added tags and fusions are not shown. Lines headed by an entry give the natural chain unless they say otherwise; changes in a name come on top. Residues count along the entry.
UniProt P46098, 24-478 limits assumed: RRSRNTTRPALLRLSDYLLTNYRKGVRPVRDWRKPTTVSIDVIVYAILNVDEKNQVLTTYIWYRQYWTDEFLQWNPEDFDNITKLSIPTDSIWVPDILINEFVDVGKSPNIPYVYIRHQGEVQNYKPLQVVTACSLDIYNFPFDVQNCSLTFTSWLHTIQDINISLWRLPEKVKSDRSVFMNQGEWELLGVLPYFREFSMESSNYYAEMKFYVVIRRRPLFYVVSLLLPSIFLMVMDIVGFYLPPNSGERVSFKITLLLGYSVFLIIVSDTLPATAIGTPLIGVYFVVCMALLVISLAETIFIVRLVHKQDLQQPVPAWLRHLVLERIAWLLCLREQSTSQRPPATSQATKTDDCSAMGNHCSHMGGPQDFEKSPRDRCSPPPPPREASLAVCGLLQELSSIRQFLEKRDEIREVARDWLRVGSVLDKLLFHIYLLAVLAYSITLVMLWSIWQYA
UniProt P02708: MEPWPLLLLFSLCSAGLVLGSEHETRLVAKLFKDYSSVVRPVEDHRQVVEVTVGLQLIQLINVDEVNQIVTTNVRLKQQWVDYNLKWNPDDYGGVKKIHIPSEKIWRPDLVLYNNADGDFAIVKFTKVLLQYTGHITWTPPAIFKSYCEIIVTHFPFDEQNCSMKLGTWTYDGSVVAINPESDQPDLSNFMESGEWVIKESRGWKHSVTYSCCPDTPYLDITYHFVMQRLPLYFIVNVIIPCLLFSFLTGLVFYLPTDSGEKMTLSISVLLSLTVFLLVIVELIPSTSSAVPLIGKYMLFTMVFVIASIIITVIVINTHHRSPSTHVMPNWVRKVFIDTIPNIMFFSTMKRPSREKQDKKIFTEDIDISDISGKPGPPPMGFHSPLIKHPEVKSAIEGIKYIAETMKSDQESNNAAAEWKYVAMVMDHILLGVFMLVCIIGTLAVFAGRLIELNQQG
UniProt P07510: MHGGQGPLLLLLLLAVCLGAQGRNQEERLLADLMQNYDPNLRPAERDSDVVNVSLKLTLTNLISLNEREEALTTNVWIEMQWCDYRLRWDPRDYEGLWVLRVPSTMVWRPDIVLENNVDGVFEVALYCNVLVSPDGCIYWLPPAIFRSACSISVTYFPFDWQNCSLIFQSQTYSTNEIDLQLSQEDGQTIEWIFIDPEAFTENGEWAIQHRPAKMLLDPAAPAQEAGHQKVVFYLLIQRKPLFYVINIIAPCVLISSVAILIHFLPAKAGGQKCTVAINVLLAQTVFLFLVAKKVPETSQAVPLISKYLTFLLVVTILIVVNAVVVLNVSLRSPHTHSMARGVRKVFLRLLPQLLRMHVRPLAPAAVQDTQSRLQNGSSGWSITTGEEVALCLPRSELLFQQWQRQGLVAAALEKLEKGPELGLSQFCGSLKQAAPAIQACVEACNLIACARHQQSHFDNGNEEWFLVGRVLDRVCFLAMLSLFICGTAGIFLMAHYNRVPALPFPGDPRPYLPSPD
UniProt Q07001: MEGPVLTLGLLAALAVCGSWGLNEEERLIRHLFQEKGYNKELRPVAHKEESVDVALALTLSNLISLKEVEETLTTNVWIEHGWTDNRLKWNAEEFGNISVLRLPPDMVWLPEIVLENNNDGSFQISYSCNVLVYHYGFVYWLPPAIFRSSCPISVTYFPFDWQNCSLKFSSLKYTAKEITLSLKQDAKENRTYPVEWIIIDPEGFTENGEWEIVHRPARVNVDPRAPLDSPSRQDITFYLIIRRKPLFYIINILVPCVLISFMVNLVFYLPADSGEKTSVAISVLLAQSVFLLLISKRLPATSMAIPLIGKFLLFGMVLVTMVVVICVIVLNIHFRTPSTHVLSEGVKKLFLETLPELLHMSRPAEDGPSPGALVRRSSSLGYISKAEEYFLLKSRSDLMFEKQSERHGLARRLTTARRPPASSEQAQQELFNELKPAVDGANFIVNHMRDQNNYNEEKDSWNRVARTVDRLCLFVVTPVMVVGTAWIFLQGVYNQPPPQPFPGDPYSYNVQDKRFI

SMILES: CN(CC1CCN(Cc2ccccc2)CC1)C(=O)c1cn(Cc2ccccc2Cl)nn1
- Normalized % neuroprotection (antagonism of DFP-induced seizure-like behaviors) ([1]; compared with DFP controls, over a 2 h period post-injection): 93.4%
- Seizure score (mean ± SD) ([1]; pretreatment before DFP, 2 h period post-injection): 0.6 ± 1.3
- Normalized % seizure ([1]; relative to DFP controls): 6.6%
- cognition in Novel Object Recognition test ([2]; administered 1 hour after T1, 1.0 mg/kg): significantly enhances cognition
- cognition in Novel Object Recognition test ([2]; administered 1 hour after T1, about 3.0 mg/kg): reduced cognition
- relative cognitive score (d2) ([2]; 3.0 mg/kg): no increase in cognition
- relative cognitive score (d2) ([2]; doses up to 1.0 mg/kg): progressive increase

SMILES: O=C(NCC1CCN(Cc2ccccc2)CC1)c1cn(Cc2cccc(Cl)c2)nn1
- binding to the 5HT3 receptor [3]: 8.4%
- binding to the muscle-type nAChR [4]: no detectable binding

— patent US9108949B2, “Compounds and methods of prophylaxis and treatment regarding nicotinic receptor antagonists” (dated 2015)
